In all, about 10,000 compounds went through this assay and about 15 (0.1%) were called active.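 How the source made its calls: active means highest signal at least 8 times the median of untreated cell-only control wells at some dose; inactive means the rest.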 The list is a sample of the results.
Columns and labels:
[1] = compounds raising F508del-CFTR protein level – cell-based, HeLa F508del-CFTR, immunofluorescence, viability, primary screen (AID 1224863); conditions: immunofluorescence total CFTR, 24 h, stronger effect = higher value; min viability: measured here: HeLa viability, alamarBlue, dose 20, library dosed in µg/mL unless noted; viability: measured here: primary viability 10 ug/mL, library dosed in µg/mL unless noted;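 on fold increase: total CFTR protein by anti-CFTR immunofluorescence in fixed cells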;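 on max fold increase: total CFTR protein by anti-CFTR immunofluorescence in fixed cells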
[2] = target: Cystic fibrosis transmembrane conductance regulator (Homo sapiens) (UniProt P13569); assay: as above; conditions: immunofluorescence total CFTR, 24 h; fold increase: measured here: primary screen 10 ug/mL, library dosed in µg/mL, stronger effect = higher value unless noted; max fold increase: dose 10, library dosed in µg/mL, stronger effect = higher value unless noted; outcome: library dosed in µg/mL unless noted

By UniProt entry, the sequences of proteins in these tests, tags left out. Chains listed by the source or under a name are the forms on record and can include a tag or linker.
UniProt P13569, with tags, fused parts or gaps F508del: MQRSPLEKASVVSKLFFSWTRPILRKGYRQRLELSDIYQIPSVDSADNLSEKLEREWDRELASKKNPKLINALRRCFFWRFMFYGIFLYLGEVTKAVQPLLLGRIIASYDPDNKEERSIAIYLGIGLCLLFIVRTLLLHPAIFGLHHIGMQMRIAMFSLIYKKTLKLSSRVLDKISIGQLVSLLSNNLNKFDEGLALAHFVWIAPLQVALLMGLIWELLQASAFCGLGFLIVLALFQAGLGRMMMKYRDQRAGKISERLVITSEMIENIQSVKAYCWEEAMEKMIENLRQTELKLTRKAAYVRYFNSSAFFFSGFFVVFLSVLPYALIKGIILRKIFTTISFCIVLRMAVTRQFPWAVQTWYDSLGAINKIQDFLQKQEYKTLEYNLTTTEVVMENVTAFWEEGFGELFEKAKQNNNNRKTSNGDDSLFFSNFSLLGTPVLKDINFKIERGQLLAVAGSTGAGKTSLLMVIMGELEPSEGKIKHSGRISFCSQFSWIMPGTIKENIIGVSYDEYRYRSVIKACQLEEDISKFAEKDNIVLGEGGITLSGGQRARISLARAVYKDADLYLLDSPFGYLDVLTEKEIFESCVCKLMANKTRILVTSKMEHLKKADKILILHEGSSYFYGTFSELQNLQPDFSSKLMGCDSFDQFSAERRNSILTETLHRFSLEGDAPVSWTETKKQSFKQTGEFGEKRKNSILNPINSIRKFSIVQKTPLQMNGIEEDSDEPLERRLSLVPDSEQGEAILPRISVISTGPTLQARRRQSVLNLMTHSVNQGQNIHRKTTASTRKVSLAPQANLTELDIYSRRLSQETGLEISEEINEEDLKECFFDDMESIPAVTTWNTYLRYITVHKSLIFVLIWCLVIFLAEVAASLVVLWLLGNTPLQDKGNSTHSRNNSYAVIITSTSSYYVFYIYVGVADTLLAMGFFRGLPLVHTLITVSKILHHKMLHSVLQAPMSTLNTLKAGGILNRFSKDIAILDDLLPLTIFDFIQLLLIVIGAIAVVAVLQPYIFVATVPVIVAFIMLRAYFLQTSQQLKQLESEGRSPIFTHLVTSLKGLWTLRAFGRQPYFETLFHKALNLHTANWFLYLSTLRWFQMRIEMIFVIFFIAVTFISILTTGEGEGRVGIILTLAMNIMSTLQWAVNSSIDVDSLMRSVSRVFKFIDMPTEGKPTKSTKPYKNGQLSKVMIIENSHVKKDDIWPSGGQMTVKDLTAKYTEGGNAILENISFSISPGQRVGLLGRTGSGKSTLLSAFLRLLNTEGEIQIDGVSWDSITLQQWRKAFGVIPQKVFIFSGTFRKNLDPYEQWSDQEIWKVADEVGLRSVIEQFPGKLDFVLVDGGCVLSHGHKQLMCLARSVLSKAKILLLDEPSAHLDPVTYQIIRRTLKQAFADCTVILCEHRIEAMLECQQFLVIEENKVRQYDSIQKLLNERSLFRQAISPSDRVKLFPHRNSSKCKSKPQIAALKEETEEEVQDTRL

| Structure (SMILES) | viability [1] [%] | fold increase [2] | outcome [2] | min viability [1] [%] | max fold increase [2] |
| --- | --- | --- | --- | --- | --- |
| N#Cc1c(/C=C/c2ccc3c(c2)OCCO3)cc(-c2cccc(Cl)c2)n2c1nc1ccccc12 | 99 | 1.16 | inactive | – | – |
| CC(C)CN1CC(C(=O)Nc2ccc3c(c2)OC2(CCCC2)O3)CC1=O (centres undefined) | 83 | 1.08 | inactive | – | – |
| O=C(OCc1cc(Cl)c2c(c1)OCO2)c1ccco1 | 90 | 0.99 | inactive | – | – |
| O=C(Cn1ncc(Cl)c(Cl)c1=O)N1CCNC1=O | 78 | 1.56 | – | 70 | 3.11 (inactive) |
| CCOCCCNc1sc(S(C)(=O)=O)nc1S(=O)(=O)c1ccc(C)cc1 | 93 | 1.05 | inactive | – | – |
| CC(C#N)Sc1nnnn1-c1ccc(Cl)cc1 (centres undefined) | 98 | 0.96 | inactive | – | – |
| C=CCOc1ccccc1/C=C(/C#N)c1nc(N)nc(N(C)C)n1 | 85 | 1.09 | inactive | – | – |
| N#Cc1ccc(/C=C2\CSc3ccccc3C2=O)cc1 | 56 | 0.79 | inactive | – | – |
| CC1(c2ccc3c(c2)OCO3)NC(=O)N(Cc2ccc3c(c2)OCO3)C1=O (centres undefined) | 100 | 0.99 | inactive | – | – |
| CS(=O)(=O)NC1CCN(CC(=O)NC2CC2)CC1 | 105 | 1.17 | inactive | – | – |
| S=c1n(CN(C2CCCC2)C2CC2)nc(N2CCOCC2)n1-c1ccccc1 | 102 | 1.03 | inactive | – | – |
| CC(C)N1C(=O)c2ccc(C(=O)Nc3ccc(I)cc3)cc2S1(=O)=O | 92 | 0.96 | inactive | – | – |
| Cc1cnc(NC(=O)COCC2CC2)s1 | 100 | 1.01 | inactive | – | – |
| CCN1C(=O)c2ccccc2N2C(=O)CCC12C(=O)NC(C)c1ccc(F)cc1 (centres undefined) | 97 | 0.96 | inactive | – | – |
| CCC(C)(C)NCC(=O)N1c2ccccc2NC(=O)C1(C)C | 93 | 1.11 | inactive | – | – |
| NC(=O)C1CCCN1S(=O)(=O)c1ccc(Cl)s1 (centres undefined) | 97 | 1.06 | inactive | – | – |
| Cn1ncc2c(NCC(=O)NC(C)(C)C)ncnc21 | 91 | 1.05 | inactive | – | – |
| CS(=O)(=O)c1ccc(Oc2ccc3c(c2)OCCO3)c([N+](=O)[O-])c1 | 92 | 0.98 | inactive | – | – |
| CCn1c(SCCS(=O)(=O)c2ccc(Br)cc2)nc2ccccc21 | 74 | 0.65 | inactive | – | – |
| CN1CCN(C(=O)C2CCN(C(=O)OCC(F)(F)F)CC2)c2nc3ccccc3nc21 | 85 | 0.99 | inactive | – | – |
| CN(C)S(=O)(=O)N1CCN(Cc2ccccc2CN2CCN(S(=O)(=O)N(C)C)CC2)CC1 | 94 | 0.9 | inactive | – | – |
| CS(=O)(=O)NC1CCCN(c2nc(-c3ccccc3)nc3ccccc23)C1 (centres undefined) | 91 | 0.95 | inactive | – | – |
| COc1cc(OC)cc(-c2nnc(SCCc3ccccc3)o2)c1 | 105 | 0.99 | inactive | – | – |
| FC(F)(F)c1cnc(Nc2ccc3c(c2)OCCO3)c(Cl)c1 | 81 | 0.98 | inactive | – | – |

| Structure (SMILES) | viability [1] [%] | fold increase [2] | outcome [2] | min viability [1] [%] | max fold increase [2] |
| --- | --- | --- | --- | --- | --- |
| CC1CCC2(CC1)NC(=O)N(CN1CCC(C(=O)c3ccc4c(c3)OCCO4)CC1)C2=O (centres undefined) | 97 | 1.04 | inactive | – | – |
| O=C(OCCOc1ccc(Br)cc1)C1(c2cccc(F)c2)CCCC1 | 77 | 0.97 | inactive | – | – |
| C=CCn1c(C)cc(-c2csc(NC(=O)C3CC3)n2)c1C | 93 | 1.02 | inactive | – | – |
| Cn1cc(C#N)c(=O)n(CC(=O)Nc2sccc2C(N)=O)c1=O | 104 | 1.07 | inactive | – | – |
| O=S(=O)(Nc1ccc(Cl)c(S(=O)(=O)N2CCOCC2)c1)c1ccc2ccccc2c1 | 93 | 1.11 | inactive | – | – |
| Cc1cc(C(=O)COc2cc(C(F)(F)F)cc(C(F)(F)F)c2)c(C)n1Cc1ccc2c(c1)OCO2 | 90 | 1.11 | inactive | – | – |
| CCCCOCCCNS(=O)(=O)c1ccc(S(=O)(=O)C(F)F)cc1 | 80 | 0.94 | inactive | – | – |
| Cc1ccsc1C(=O)N1CCN(S(=O)(=O)N(C)C2CCCCC2)CC1 | 83 | 0.92 | inactive | – | – |
| O=C1c2ccccc2C(O)(c2ccc(Cl)cc2)N1CCSCc1ccco1 (centres undefined) | 77 | 0.9 | inactive | – | – |
| Cn1cc(S(=O)(=O)NC2(c3ccc4c(c3)OCCO4)CCCC2)c(=O)n(C)c1=O | 94 | 1.05 | inactive | – | – |
| O=C(NC1CCCCCC1)C1CC=CCC1 (centres undefined) | 96 | 1.02 | inactive | – | – |
| O=c1c2ccccc2nnn1COc1ccccc1Cl | 116 | 0.98 | inactive | – | – |
| CCOCCSc1nnc(-c2ccccc2)n1C | 106 | 1.04 | inactive | – | – |
| Fc1ccc2sc(CNc3ccc4nnnn4n3)cc2c1 | 105 | 1.2 | inactive | – | – |
| CCN(CC)C(=O)C(C)NC(=O)c1c(C)oc(-n2cccc2)c1C#N (centres undefined) | 90 | 0.95 | inactive | – | – |
| Cc1noc(C)c1CN1CCCC(NS(C)(=O)=O)C1 (centres undefined) | 110 | 1.04 | inactive | – | – |
| CC(C)n1nnnc1SCc1ccc([N+](=O)[O-])cc1 | 91 | 0.94 | inactive | – | – |
| Clc1ccc(CN2CCN(c3ccc(Br)cn3)CC2)s1 | 105 | 1.02 | inactive | – | – |
| O=C(NCCc1ccccc1F)NC1CCSc2ccccc21 (centres undefined) | 95 | 1.02 | inactive | – | – |
| COc1ccccc1-c1noc(CSC23CC4CC(CC(C4)C2)C3)n1 | 70 | 0.79 | inactive | – | – |
| O=S(=O)(Nc1ccc2c(c1)OCCO2)c1cc(F)cc(F)c1 | 97 | 0.92 | inactive | – | – |
| O=C(NCCc1ccc2c(c1)OCCO2)NCc1cccnc1OC1CCCC1 | 91 | 0.85 | inactive | – | – |
| CCC1CCC2(CC1)NC(=O)N(CC(=O)NCC1CCCO1)C2=O (centres undefined) | 102 | 0.98 | inactive | – | – |
| Cc1[nH]c2ccccc2c1C(=O)C(C)OC(=O)C12CC3CC(C1)CC(c1ccccc1)(C3)C2 (centres undefined) | 85 | 0.91 | inactive | – | – |

| Structure (SMILES) | viability [1] [%] | fold increase [2] | outcome [2] | min viability [1] [%] | max fold increase [2] |
| --- | --- | --- | --- | --- | --- |
| CC(C)c1ccc(C(NC(=O)CN2C(=O)NC(C)(c3ccc4c(c3)OCO4)C2=O)C(C)C)cc1 (centres undefined) | 81 | 0.84 | inactive | – | – |
| Cn1nnn(CN2CCN(c3ccccc3)CC2)c1=S | 101 | 1.1 | inactive | – | – |
| CNc1nnc(Sc2nc3cc(C)nn3c3ccccc23)s1 | 97 | 1.1 | inactive | – | – |
| CN(CC(=O)NC(=O)NCCC1=CCCCC1)Cc1ccc(Cl)s1 | 85 | 0.92 | inactive | – | – |
| C#CCOc1ccc(CNC(C)c2ccc(Br)cc2)cc1OCC (centres undefined) | 76 | 0.94 | inactive | – | – |
| CN(Cc1ccccc1Cl)Cn1ncn(-c2cccc(Cl)c2)c1=S | 105 | 1.04 | inactive | – | – |
| Cn1ccnc1COc1ccc(C(=O)O)cc1 | 89 | 1.02 | inactive | – | – |
| Cc1cc(-c2nccn2C)c(=O)[nH]n1 | 99 | 1.08 | inactive | – | – |
| Cc1cc(NC(=O)N2CCN(C(=O)OC(C)(C)C)CC2)no1 | 102 | 1.12 | inactive | – | – |
| CC(C)CN1C(=O)c2ccc([N+](=O)[O-])cc2C1=O | 88 | 0.89 | inactive | – | – |
| O=C1NC2(CCCCCC2)C(=O)N1CN1CCCCCCC1 | 76 | 0.99 | inactive | – | – |
| Cc1cccc2nc(CSc3ccc4ccccc4n3)cc(=O)n12 | 83 | 1.04 | inactive | – | – |
| O=[N+]([O-])c1cn(Cc2cn(-c3ccccc3)nc2-c2ccc(Cl)cc2)cn1 | 103 | 1.3 | inactive | – | – |
| O=C(COc1cc(Cl)c(Cl)cc1Cl)N1CCN(C(=O)C2CCCO2)CC1 (centres undefined) | 99 | 0.97 | inactive | – | – |
| CCN(CC)S(=O)(=O)c1ccc(S(=O)(=O)Nc2nc3ccccc3nc2N2CCCC2)cc1 | 92 | 1.04 | inactive | – | – |
| Cc1nnc(COC(=O)C2=Cc3ccccc3OC2)o1 | 102 | 1.03 | inactive | – | – |
| CN(C)C(=O)c1ccc(N2CCOC2=O)cc1 | 97 | 0.98 | inactive | – | – |
| CCCCn1c(N)c(N(C)C(=O)CCS(=O)(=O)CC(C)C)c(=O)[nH]c1=O | 103 | 1 | inactive | – | – |
| CN1CCC(CNC(=O)C23CC4CC(CC(Cl)(C4)C2)C3)c2ccccc21 (centres undefined) | 77 | 1.08 | inactive | – | – |
| CC(c1nc2ccccc2s1)N(C)CN1C(=O)C2CC=CCC2C1=O (centres undefined) | 91 | 1.02 | inactive | – | – |
| COC(=O)/C=C/c1ccc(OCC(=O)c2ccc(OC(F)F)cc2)c(OC)c1 | 94 | 1.05 | inactive | – | – |
| CCOc1c(Br)cc(CNC(C)C2CCCO2)cc1Br (centres undefined) | 99 | 1.09 | inactive | – | – |
| Cc1cc(C(C)(C)C)ccc1Oc1ccc2nnnn2n1 | 71 | 1 | inactive | – | – |
